# DT40 TDP1 no CPT: qHTS for Inhibitors of human tyrosyl-DNA phosphodiesterase 1 (TDP1): qHTS in cells in absence of CPT. DT40 Tdp1-/- hTDP1 cells, no CPT, ATP luminescence, 48 h. Potency, µM (highest dose often 46.2 µM), usual class: inhibitors. 15% of 420,000 active; further: nearly all actives have a fitted effect of over 55% in size
#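 Chicken DT40 Tdp1-/- cells stably complemented with human TDP1 were seeded at 400 cells/well with DMSO in place of 20 nM camptothecin. After compound pinning, cells grew at least 48 hr at 37 °C; viability read by CellTiter-Glo luminescence.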
# TDP1 block: blocks human tyrosyl-DNA phosphodiesterase 1; Q9NUW8; recombinant TDP1, AlphaScreen DNA substrate cleavage; Potency, µM (highest dose often 130 µM), hits mostly inhibitors; 0.28% of 350,000 active; further: nearly all actives have a fitted effect of over 40% in size
#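 Signal: AlphaScreen proximity between streptavidin donor and anti-FITC acceptor beads on intact substrate. Reaction: Tdp1 1 nM, substrate 15 nM final, 5 min RT after 15 min compound preincubation.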
# uPA surface inh: cell surface uPA generation inhibition; 0.31% of 330,000 active; Potency, µM (highest dose often 38.3 µM), usual class: inhibitors; cell surface uPA generation assay, qHTS; AID 540303; active means well fitted inhibition curve with a large enough effect; inconclusive means small, poorly fitted or top-dose-only effect; inactive means no such curve, though single readings can be large or run the other way; tested in mouse RAW 264.7 cells; further: nearly all actives have a fitted effect of over 55% in size
# miR-21 reporter: miR-21 reporter, rising signal | HeLa miR-21 FLuc reporter, luciferase, 48 h | Potency, µM (highest dose often 38.3 µM) | 340,000 tested, under 10 active | AID 2288; active = well fitted rising curve with a large enough effect; inconclusive = small, poorly fitted or top-dose-only effect; inactive = no such curve, though single readings can be large or run the other way;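 further: miR-21 action dims this reporter so a rising signal means less miR-21 action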
#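 Compounds were titrated across several concentrations (up to approximately 40 uM) and incubated 48 hours with HeLa miR-21-FLuc reporter cells (miR-21 target sequence downstream of FLuc, endogenous miR-21). Readout was firefly luciferase luminescence after lytic detection reagent.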
# TDP1 cell CPT: growth inhibition of DT40 Tdp1-/-;hTDP1 cells with camptothecin (screen for TDP1 inhibitors); chicken DT40 Tdp1-/-;hTDP1 cells + 20 nM CPT, ATP luminescence, 48 h; Potency, µM (series often up to 46.2 µM), hits mostly inhibitors; 12% of 420,000 active; AID 686979; further: nearly all actives have a fitted effect of over 55% in size
#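 Chicken DT40 Tdp1-/- cells stably complemented with human TDP1 were seeded at 400 cells/well in medium containing 20 nM camptothecin, exposed to pin-transferred compounds, and grown at 37 °C for at least 48 hr. Viability was read as ATP luminescence.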
# Hits are given with their value; - = inactive; ? = inconclusive; . = no result given; [ ] = remark or other dose. Compounds with a hit are over-represented: about 16% of the library has one in this group of screens. Unless noted, the call rests on the fitted dose curve; in most records, active means well fitted curve in the direction sought with a large enough effect; inconclusive means small, poorly fitted or top-dose-only effect, or another doubt; inactive means no such curve, though single readings can be large; an effect the other way counts as inactive or inconclusive.
SMILES,DT40 TDP1 no CPT,TDP1 block,uPA surface inh,miR-21 reporter,TDP1 cell CPT
CCOC(=O)N1CCN(c2nc(-c3cccc(OC)c3)cc(C(F)(F)F)n2)CC1,21µM,-,-,-,?
COc1cccc(-c2cc(C(F)(F)F)nc(-n3cncn3)n2)c1,-,-,.,-,-
C/C(=N\NC(=O)c1ccccc1N)c1ccc(NC(=O)Cc2ccccc2)cc1,-,-,-,-,-
O=[N+]([O-])c1ccc(S(=O)(=O)N2CCN(c3ccc(N4CCOCC4)nn3)CC2)cc1,-,-,-,.,-
CCC(C(=O)NCCc1ccccc1)c1ccccc1 (stereo unspecified),-,.,-,-,-
COc1ccc(N2CCN(S(=O)(=O)CCNC(=O)Cc3ccc([N+](=O)[O-])cc3)CC2)cc1,-,-,-,-,-
COc1ccc(NC(=O)Cn2cnc3sc(C)c(S(=O)(=O)N4CCOCC4)c3c2=O)c(OC)c1,-,-,-,-,-
CCOC(=O)C1CCCN(C(=O)c2cnn3c(C(F)(F)F)cc(-c4ccccc4)nc23)C1 (stereo unspecified),23µM,-,-,-,18µM
CCC1=Nc2cc(C(=O)NC3CCCC3)ccc2Sc2ccc(Br)cc21,0.73µM,-,.,-,0.73µM
CCOC(=O)N1CCC(NC(=O)c2ccc3c(c2)N=C(CC)c2cc(C)ccc2S3)CC1,18µM,-,-,-,10µM
Cc1ccc(C(=O)NCc2ccco2)cc1,-,3.2µM,-,-,-
CCC1=Nc2cc(C(=O)NCCN3CCOCC3)ccc2Sc2ccc(Br)cc21,-,-,-,-,-
CCC1=Nc2cc(C(=O)NCCN3CCOCC3)ccc2Sc2ccc(C)cc21,-,-,-,-,-
CC1=Nc2cc(C(=O)NC3CCC(C)CC3)ccc2Sc2c(C)ccc(C)c21 (stereo unspecified),.,-,.,-,.
CC1=Nc2cc(C(=O)NC3CCCCC3)ccc2Sc2ccc(Cl)cc21,1µM,-,.,-,0.82µM
CC1=Nc2cc(C(=O)NCC3CCCO3)ccc2Sc2ccc(Br)cc21 (stereo unspecified),5.8µM,.,?,-,3.7µM
CC1=Nc2cc(C(=O)O)ccc2Sc2ccc(Br)cc21,-,-,-,-,-
CCOC(=O)N1CCC(NC(=O)c2ccc3c(c2)N=C(C)c2c(C)ccc(C)c2S3)CC1,1.2µM,-,?,-,2.1µM
CCC1=Nc2cc(C(=O)NCc3ccco3)ccc2Sc2ccc(C)cc21,1.3µM,-,-,-,1.5µM
CCCC1=Nc2cc(C(=O)NC3CCCC3)ccc2Sc2ccc(C)cc21,1µM,-,.,?,1.5µM
CCCC1=Nc2cc(C(=O)N3CCCC3)ccc2Sc2ccc(C)cc21,?,-,-,-,?
CCn1c(C)nc2c(C)[n+](CC(=O)c3ccc(Br)cc3)ccc21,-,-,-,-,-
Cc1c2cn[nH]c(=O)c2c(C)n1-c1ccccc1,-,.,-,-,-
Cc1cc(OCC(=O)N2CCN(c3ccc(F)cc3)CC2)c2c(C)cc(=O)oc2c1,-,-,-,-,-
Cc1csc2ncc(C(=O)NCc3ccco3)c(=O)n12,-,45µM,-,-,-
SMILES,DT40 TDP1 no CPT,TDP1 block,uPA surface inh,miR-21 reporter,TDP1 cell CPT
CCOC(=O)N1CCN(C(=O)c2ccc3c(c2)N=C(CC)c2cc(C)ccc2S3)CC1,10µM,-,-,-,16µM
CCC1=Nc2cc(C(=O)NC3CCC(C)CC3)ccc2Sc2ccc(C)cc21 (stereo unspecified),0.65µM,-[12.3 µM],.,-,1.3µM
O=C(NCc1ccco1)c1cnc2sccn2c1=O,-,-,-,-,-
O=C(c1ccc(F)cc1)c1c[nH]c(C(=O)NCc2ccco2)c1,12µM,-,-,-,?
CCC1=Nc2cc(C(=O)N3CCCCC3)ccc2Sc2ccc(C)cc21,?,-,-,-,-
Cc1ccc2c(c1)c1nnc(SCC(=O)NC3CC3)nc1n2C,.,-,.,-,.
CCN(CC)CCNC(=O)c1c(O)c2c([nH]c1=O)CCCC2,-,-,-,-,-
O=C(Nc1cccc2ccccc12)c1cnsn1,-,-,-,-,-
O=C(Nc1cc2c(cc1C(=O)c1ccccc1Br)OCCO2)c1cccc(Cl)c1,-,-,.,-,-
CC(=NO)C1(C)CC=CCC1CO (stereo unspecified),?,.,.,.,-
C(=Nc1cccnc1)c1ccc2ccccc2n1,1µM,.,.,.,0.89µM
COC(=O)c1ccc(O)cc1,-,-,-,-,-
COC(=O)c1ccc(CCc2cc(O)c(Br)cc2O)cc1,2.3µM,.,-,.,2.1µM
COC(=O)c1ccc(CCc2cc(O)ccc2O)cc1,5.2µM,.,-,.,2.9µM
COc1ccc(N2CCN(CC(=O)c3ccc(O)cc3O)CC2)cc1,-,-,-,-,-
C=CCNC(=O)/C(=C/c1ccc(Br)cc1)NC(=O)c1ccccc1OC,-,-,-,-,-
CC(=O)Nc1ccc(C2Nc3c(C)cc(C)cc3-c3cc(C)nn32)cc1 (stereo unspecified),?,-,.,-,18µM
COC(=O)c1ccc(C2Nc3c(C)cccc3-c3cc(C)nn32)cc1 (stereo unspecified),16µM,-,.,-,?
O=C1CCC/C(=N/NC(=O)c2ccc(NS(=O)(=O)c3cccs3)cc2)C1,-,-,-,-,-
CCCCC(CC)COCC1CO1 (stereo unspecified),.,-,.,.,.
CCOC(=O)C1=C(O)/C(=C/c2cn(CC(=O)N3CCCC3)c3ccccc23)SC1=Nc1ccccc1,18µM,-,-,-,18µM
O=C(CSc1nnc(SCC(=O)c2ccco2)s1)c1ccco1,10µM,-,-,-,23µM
O=C(CSc1nc2cc(Cl)ccc2s1)c1ccco1,?,-,-,-,-
CCn1c2ccccc2c2n[nH]c(=S)nc21,?,.,-,-,-
CCn1c2ccccc2c2nn(C)c(=N)nc21,18µM,-,-,-,15µM
SMILES,DT40 TDP1 no CPT,TDP1 block,uPA surface inh,miR-21 reporter,TDP1 cell CPT
O=C(CC(C(=O)O)c1ccc(Cl)cc1Cl)c1ccc(Cl)cc1 (stereo unspecified),-,.,-,-,-
COC(=O)/C=C/c1cnc2ccccc2c1,?,-,-,-,-
Cc1ccc(NC(=O)Cn2c(=O)n(CCCCC(=O)NCc3ccccc3Cl)c(=O)c3ccccc32)cc1C,?,-,.,-,?
Cc1ccc(NC(=O)Cn2c(=O)n(CCCCC(=O)NCc3ccccc3Cl)c(=O)c3ccccc32)cc1,23µM,-,.,-,?
Cc1ccc(NC(=O)Cn2c(=O)n(CCC(=O)NCc3ccccc3Cl)c(=O)c3ccccc32)cc1,21µM,-,.,-,16µM
COc1cc2c(=O)n(Cc3ccccc3Cl)c(=O)n(CC(=O)Nc3ccccc3)c2cc1OC,?,-,.,-,?
CC(C)(C)C(=O)Cn1c(=O)n(CCCCCC(=O)NCc2ccccc2Cl)c(=O)c2sccc21,21µM,-,.,-,?

# Screening results (PubChem)
